Data: patent US8709738B2, “Methods for predicting cardiac toxicity” (Quintiles Transnational Corporation, priority 2006, dated 2014)

Experiments:
Format in all cases: cell-based
[1] = test system: HER2-expressing human cardiomyocytes; assay: AMPK activation, ATP production and TNFα-induced apoptosis in cardiomyocytes
Source text: The effects of specific HER2-targeted therapies on AMPK and consequently energy production may predict for the risk associated cardiomyopathy and provide a novel HER2-directed therapeutic strategy to protect myocardium from the killing effects of TNFα or other pro-apoptotic stimuli, following acute ischemic injury.

Au565 cells = assay: Oil red lipid staining of Au565 cells; settings: FIG. 2 and FIG. 3
Source text: FIG. 3 are photographs of Au-565 cells treated by GW-2974 and stained for lipids.
(§1) This is shown by the staining of lipids with oil red (lipids are represented by red dots) against the background counterstaining of the cells (hematoxylin). […] Lipids increase in cells treated with Herceptin and NDF (compared with untreated cells) but not decrease in cells treated with GW2974.

cardiomyocytes cells = assay: ERRα and MCAD in cardiomyocytes treated with kinase inhibitors; settings: FIG. 8
Source text: FIG. 8 is a photograph of ERRα and MCAD in cardiomyocytes cells with and without treatment by various kinase inhibitors.
ERRα plays a role in lipid metabolism in cardiac cells, and MCAD is an enzyme that breaks down lipids and fatty acids. Mutations in MCAD is a common genetic disorder, especially in those of northern European descent.

[2] = test system: normal fat cells grown in culture; assay: Lipid stored in cultured fat cells (Oil red O staining); settings: cell type not given
Source text: Treatment of otherwise normal cells or cells having normal protein tyrosine kinase regulation with the kinase inhibitors of the invention affects fatty acid metabolism by increasing or decreasing the capacity of such cells to oxidize fatty acids. […] This observation has also been made in cardiac cells. Such studies can be conducted using Oil red 0 staining for lipids. Thus, treatment with lapatinib (TYKERB®) and other Her1/Her2 tyrosine kinase inhibitors cause a loss of fat from such cells that is consistent with reduced lipid synthetic rates and/or increased lipid oxidation rates.
In addition, tyrosine kinase inhibitors can be used to reduce fat in cells, particularly cells that are otherwise normal or that lack protein tyrosine kinase activity mediated disease. To this end at least a portion of a mammal or tissue can be treated with a kinase inhibitor such that the amount of lipid in the cells is reduced. Any suitable kinase inhibitor can be used. Methods for determining suitable inhibitors are well known. For example, samples of adipocytes can be grown in the presence and absence of a kinase inhibitor and stained with Oil red 0 by known methods to determine whether the kinase inhibitor causes a reduction in stored fat. Those kinase inhibitors that cause an observable reduction in fat storage are suitable for the present invention. […]

[3] = test system: primary human cardiac myocytes; assay: Lipid staining of cardiomyocytes; settings: FIG. 4
Source text: FIG. 4 are photographs of primary human cardiac myocytes grown under various conditions and stained for lipids.
FIG. 5 is a bar graph illustrating the percentage of human cardiomyocytes testing positive for lipids under various conditions.
as §1

HERCEPTIN®: the monoclonal antibody HERCEPTIN®; HER2-targeted therapy
AMPK activation [1]: do not activate AMPK
cardiomyocyte apoptosis / cell death induced by TNFα ([1]; TNFα): enhanced cardiomyocyte cell death
lipids in Au565 cells (oil red staining) (Au565 cells): result in the production of lipids
MCAD expression (cardiomyocytes cells): expressed
level of ERRα (cardiomyocytes cells): diminished slightly
lipid content of cells [2]: appears to increase
lipids in cardiomyocyte cells compared with untreated cells [3]: increase
